Values of other authors, collected in paper PMC5807066.
Where two headings read alike, the source gives them in different places.

Chains of the proteins cited; added tags and fusions are not shown.
UniProt P10408, whole entry: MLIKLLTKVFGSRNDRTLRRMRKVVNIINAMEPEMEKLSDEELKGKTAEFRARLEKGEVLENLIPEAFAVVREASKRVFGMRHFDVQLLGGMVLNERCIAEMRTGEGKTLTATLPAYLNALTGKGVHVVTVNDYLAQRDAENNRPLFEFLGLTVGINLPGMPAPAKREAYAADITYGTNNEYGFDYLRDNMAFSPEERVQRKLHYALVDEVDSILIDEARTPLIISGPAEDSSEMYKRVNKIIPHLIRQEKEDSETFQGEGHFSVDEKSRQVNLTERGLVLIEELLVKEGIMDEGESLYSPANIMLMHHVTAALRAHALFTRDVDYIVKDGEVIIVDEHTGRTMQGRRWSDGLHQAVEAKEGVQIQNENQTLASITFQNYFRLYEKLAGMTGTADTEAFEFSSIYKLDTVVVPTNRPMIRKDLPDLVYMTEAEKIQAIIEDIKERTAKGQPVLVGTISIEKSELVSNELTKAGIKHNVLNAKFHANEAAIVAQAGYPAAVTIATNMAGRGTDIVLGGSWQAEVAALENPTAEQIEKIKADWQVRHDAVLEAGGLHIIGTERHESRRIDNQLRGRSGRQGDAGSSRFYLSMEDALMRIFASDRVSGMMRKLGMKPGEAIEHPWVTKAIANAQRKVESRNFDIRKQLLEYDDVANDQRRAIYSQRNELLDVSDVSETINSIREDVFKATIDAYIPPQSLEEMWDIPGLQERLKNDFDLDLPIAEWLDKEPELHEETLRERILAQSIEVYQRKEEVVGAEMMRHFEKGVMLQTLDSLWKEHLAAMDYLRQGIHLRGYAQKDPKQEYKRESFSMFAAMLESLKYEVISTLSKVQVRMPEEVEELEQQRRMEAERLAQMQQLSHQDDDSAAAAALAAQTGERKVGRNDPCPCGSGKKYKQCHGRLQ

Legend:
[1] = molecular target: SecYEG (Escherichia coli) (UniProt P0AGA2)
[2] = molecular target: SecYEG (Escherichia coli) (UniProt P0AGA2); remark: listed apart in the source

Row | Kd [1] [nM] | Substance | Kd [2] [nM]
1 | 60 | SecA:SecB:precursor complex (from UniProt P10408) | –
2 | – | SecA (from UniProt P10408) | 40
